## scFv variants of Ab-14 (light chain) against a SARS-CoV-2 spike peptide

From the AlphaSeq antibody data of Engelhart et al. 2022 (doi:10.1038/s41597-022-01779-4), copy in the FLAb collection.

Target peptide (SARS-CoV-2 spike, HR2 region): PDVDLGDISGINAS

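AAYL50 was designed without a model: most single CDR substitutions and a random sample of double and triple ones. The scFvs were displayed on barcoded MATa yeast, the peptide on MATalpha yeast. Binding brings cells together so that they mate, and sequencing counts the barcode pairs among the diploids. The ratio of observed to expected reads was calibrated, replicate by replicate, on BCL2-family standards whose Kd was known from biolayer interferometry. There are three technical replicates.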

Parent scFv Ab-14: VH joined to VL by three GGGGS repeats. Changes lie in the light chain CDRs alone.
VH: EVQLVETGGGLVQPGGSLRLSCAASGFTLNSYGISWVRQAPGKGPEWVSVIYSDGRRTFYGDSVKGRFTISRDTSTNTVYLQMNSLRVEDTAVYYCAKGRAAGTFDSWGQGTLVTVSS
VL: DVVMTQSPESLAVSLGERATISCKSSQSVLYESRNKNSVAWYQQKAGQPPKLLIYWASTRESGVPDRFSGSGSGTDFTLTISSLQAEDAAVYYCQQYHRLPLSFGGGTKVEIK

Each variant is given by its three light chain CDRs, as the data file delimits them; those of the parent are KSSQSVLYESRNKNSVA, WASTRES, QQYHRLPLS. Affinities are written as log10 Kd with Kd in nM; a lower number is a better binder. An entry "n.d." has no value in the source: the pair was not observed among the diploids in that replicate. This suggests poor binding but is not conclusive. Three control strains display no target. For library AAYL50, 18% of the pairings with them gave a signal, with a median of 4.19 and one signal in twenty below 2.99, so weak values seen in few replicates may be background. For each scFv, signals with the empty controls are counted beside the result, with their mean in brackets. For reference, the parent read 0.65 as the reference entry and 1.68 as a member of this library.

CDR-L1,CDR-L2,CDR-L3,"log10 Kd, replicates",signal with controls
PSSQSVLYESRNKNSVA,WAATWES,QQYHRLPLS,3.72 / n.d. / n.d.,2/9 (2.81)
KSSQSVRYESRNKNSVA,WASTRES,QQYSRPPLS,1.02 / 1.18 / 1.33,2/9 (4.04)
KSSQSVLYESRNKNSVA,MASTRES,QQYHNLPVS,2.92 / 2.72 / n.d.,1/9 (2.85)
KSSQSVLQESRNKNSVA,WASTRES,RQYHRLPLS,2.20 / 1.95 / 1.86,2/9 (4.70)
KSSQDVLYWSRNKNSVA,WASTRES,YQYHRLPLS,n.d. / n.d. / n.d.,0/9
KSSQSVLYWSRHKNSVA,WVSTRES,QQYHRLPLS,n.d. / 4.11 / 5.47,4/9 (4.32)
KSSQSVLYESENKDSVA,WASTPES,QQYHRLPLS,1.02 / 1.17 / 1.37,2/9 (3.94)
KSKQSVLYESRNKNSVA,WYSTRES,QQYMRLPLS,n.d. / 3.86 / n.d.,0/9
KSFQSVLYESRNKNSVA,WASTRES,QQYHRLPYS,n.d. / 3.31 / n.d.,3/9 (4.80)
KSSQSVLYESRNKNSVA,WASSRES,QGYHRLPLQ,4.22 / n.d. / 5.49,4/9 (4.68)
KSNQSVLYESRKKNSVA,WASTRES,QQKHRLPLS,n.d. / n.d. / n.d.,7/9 (4.26)
KSSQSVEYESRNKNSVA,TASTRES,QQYERLPLS,0.71 / 1.27 / 1.21,2/9 (4.22)
KSSQSVLGESRNKNSVA,WAQTRLS,QQYHRLPLS,1.28 / 1.27 / 1.58,2/9 (3.57)
KSSQSVLYISRNKNSVA,WASTRAS,QQYMRLPLS,1.72 / 1.60 / 1.75,0/9
KSSQSVLYESRNKHSVA,WAGTRES,QQYNRLPLS,1.46 / 1.33 / 1.72,0/9
KSSQSVLYESRNKNWVA,FASTRES,QQYHRLPLS,4.19 / 3.72 / n.d.,0/9
KSSNSVLYESRNKNSEA,WASTRFS,QQYHRLPLS,n.d. / 4.59 / n.d.,3/9 (4.25)
KSSQSVLYESRNKNKVA,WAWTRES,QQYHMLPLS,n.d. / n.d. / n.d.,0/9
KSSQSVLYESRNKHSEA,WASTRES,QQYHVLPLS,0.48 / 0.73 / 0.64,0/9
KSSQSVLYESRNKFSVA,WESTWES,QQYHRLPLS,n.d. / n.d. / 5.38,1/9 (4.27)
KSSQSVLYESRNKNSVA,WASTRES,QQNCRLPLS,n.d. / n.d. / n.d.,3/9 (4.54)
KSSQSVLYESRNKNSVA,WASTRES,QMYCRLPLT,n.d. / n.d. / n.d.,1/9 (3.73)
KSSQSSRYESRNKWSVA,WASTRES,QQYHRLPLS,3.78 / 3.51 / 3.73,3/9 (3.83)
KSWQSVLYISRNKNSVA,WASTRES,QQYWRLPLS,n.d. / n.d. / n.d.,0/9
KSSQSVLYESRNKNSVA,WASVSES,QQYHRLVLS,4.59 / n.d. / n.d.,3/9 (3.41)
KSSQSVLYESRNKNSVA,WASTRES,QQYHRLPLQ,1.05 / 1.14 / 1.17,6/9 (4.51)
KSIQSVLYESRNKPSVI,WASTRES,QQYHRLPLS,4.15 / n.d. / n.d.,1/9 (2.79)
KSSQSVLYESRNKNSVA,WMSTRFS,QQSHRLPLS,2.57 / 2.23 / 2.46,2/9 (3.68)
KSSQSFLYESRNKNSVA,WQSTREV,QQYHRLPLS,1.84 / 1.85 / 1.97,1/9 (5.19)
KSSQSVLYESRNKNEVA,WASTREE,YQYHRLPLS,6.66 / n.d. / 5.87,4/9 (4.71)
KRSQSVLYESRNKNSVA,WACTRES,QQYARLPLS,3.79 / n.d. / n.d.,0/9
KDSQSVLYESRNKNSVA,WASTRES,EQYPRLPLS,n.d. / n.d. / n.d.,1/9 (3.83)
KSSMSVGYESRNKNSVA,WASTRES,QQYPRLPLS,4.80 / 3.74 / n.d.,3/9 (4.79)
PSSRSVLYESRNKNSVA,WTSTRES,QQYHRLPLS,4.09 / 4.01 / 3.97,5/9 (4.38)
KSSQSVLYMSCNKNSVA,WGSTRES,QQYHRLPLS,1.79 / 1.70 / 2.04,4/9 (4.27)
KSSQTVLYESRNKNWVA,WAATRES,QQYHRLPLS,n.d. / n.d. / n.d.,0/9
KSSQSVLYESRNKNSVA,WAFTRES,QLYHRLPLS,4.05 / n.d. / n.d.,3/9 (4.64)
KSSQSVLYESRNKNSVA,WASNRES,QFYKRLPLS,1.52 / 1.59 / 1.70,1/9 (6.00)
KSSQSVLYESLNKNSVA,WASTRES,QQYLRLPRS,n.d. / 5.03 / 5.34,6/9 (3.98)
KSSQSVLFESRNKNSVA,RASTRES,QQYHRLDLS,n.d. / n.d. / n.d.,0/9
KSSQSVLYESRNKNSVS,WASTRES,GQVHRLPLS,n.d. / n.d. / n.d.,0/9
KSSQSVLYESDNFNSVA,WASTRES,QHYHRLPLS,0.89 / 1.04 / 1.15,2/9 (4.24)
KSSQSVLYERRNKNSVA,DASTRES,QQYHELPLS,-0.11 / 0.21 / -0.07,5/9 (4.53)

A selection of 3 entries from above:

CDR-L1	CDR-L2	CDR-L3	log10 Kd, replicates	signal with controls
KSSQSVLYESRNKNWVA	FASTRES	QQYHRLPLS	4.19 / 3.72 / n.d.	0/9
KSSQSVLYESRNKNSVA	WAFTRES	QLYHRLPLS	4.05 / n.d. / n.d.	3/9 (4.64)
KSSQSFLYESRNKNSVA	WQSTREV	QQYHRLPLS	1.84 / 1.85 / 1.97	1/9 (5.19)